Reference: US7846944B2, “Pyrazolo-pyridinone compounds and methods of use thereof” (Amgen Inc., priority 2007, dated 2010)

Sequences of proteins named here, by UniProt entry; tags and fusion partners are left off.
UniProt Q16539, whole entry: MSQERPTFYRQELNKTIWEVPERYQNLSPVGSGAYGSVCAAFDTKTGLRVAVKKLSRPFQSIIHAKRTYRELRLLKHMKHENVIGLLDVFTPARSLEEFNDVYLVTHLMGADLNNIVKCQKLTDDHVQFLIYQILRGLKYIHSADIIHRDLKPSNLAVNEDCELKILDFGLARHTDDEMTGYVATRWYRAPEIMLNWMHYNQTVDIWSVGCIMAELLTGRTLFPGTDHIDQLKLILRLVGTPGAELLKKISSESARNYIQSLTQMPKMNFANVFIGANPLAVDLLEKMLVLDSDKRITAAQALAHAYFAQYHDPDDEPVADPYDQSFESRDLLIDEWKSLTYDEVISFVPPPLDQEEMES

What was measured:
recombinant human p38α = recombinant human p38α (Homo sapiens, UniProt Q16539); test: Purified and activated recombinant human p38α HTRF kinase assay; format: biochemical
Protocol: Purified and Activated Recombinant Human p38α Assay
• Kinase Reaction Buffer: Kinase reaction buffer for p38α HTRF assays consists of 50 mM Tris-pH 7.5, 5 mM MgCl2, 0.1 mg/mL BSA, 100 μM Na3VO4 and 0.5 mM DTT. • HTRF Detection Buffer: HTRF detection buffer contains 100 mM HEPES-pH 7.5, 100 mM NaCl, 0.1% BSA, 0.05% Tween-20, and 10 mM EDTA. • Serial Dilution of Compounds: Compounds were dissolved in 100% DMSO and serially diluted (3 fold, 10 point) in a polypropylene 96-well microtiter plate (drug plate). The final starting concentration of compounds in the p38α enzymatic assays was 1 μM. […] In the absence of substrate, the background was measured as LO control. […] After 60 minutes incubation at room temperature, the assay plate was read in a Discovery Plate Reader. The wells were excited with coherent 320 nm light and the ratio of delayed ([…] post excitation) emissions at […] (native europium fluorescence) and 665 nm (europium fluorescence transferred to allophycocyanin—an index of substrate phosphorylation) was determined (Park et al, 1999). • Data Analysis: The proportion of substrate phosphorylated in the kinase reaction in the presence of compound compared with that phosphorylated in the presence of DMSO vehicle alone (HI control) was calculated using the formula: % control (POC)=(compound−average LO)/(average HI−average LO)*100. […]

[1] = system: production of IL-1β, IL-6, and TNF-α by PBMC activated with LPS; test: Lipopolysaccharide-activated PBMC cytokine production assay; format: cell-based; conditions: 18 h, read-out: IC50 in the whole blood PMBC assay
Protocol: Lipopolysaccharide-Activated PBMC Cytokine Production Assay
Test compounds were evaluated in vitro for the ability to inhibit the production of IL-1β, IL-6, and TNF-α by PBMC activated with bacterial lipopolysaccharide (LPS). Fresh leukocytes were obtained from a local blood bank, and peripheral blood mononuclear cells (PBMCs) were isolated by density gradient centrifugation on Ficol-Paque Plus (Pharmacia).
Preparation of Test Compound Stock Solutions
All reagents were prepared in RPMI 1640+10% v/v human AB serum+1×Pens/Strep/Glu (assay medium). Test compounds were dissolved in 100% DMSO and serially diluted in 96-well polypropylene round bottom micro titer plates (drug plate). Serial dilutions were then diluted 1:250 into assay medium to a 4× working concentration. […]
LPS was prepared to a 4× concentration in assay medium. […] After 18 hours culture supernatants were removed and IL-1β, IL-6, and TNF-α presence in the supernatants was quantified using MSD ECL based technology.
Cytokine Measurements 20 μL of culture supernatant were added to MSD plates, and incubated for one hour at room temperature. 20 μL of detection antibody diluted in antibody diluent (1 μg/mL), and 110 μL of 2× Read Buffer P was added, and incubated for one hour at RT. Electrochemiluminescence was measured using the SECTOR HTS Imager (MSD, Gaithersburg, Md.). […]

[2] = system: TNF-α secretion by LPS-treated THP1 cells; test: Lipopolysaccharide-activated THP1 cell TNF production assay; format: cell-based; conditions: Homo sapiens, THP-1, 3 h, read-out: IC50 in the THP-1 cellular TNF production assay
Protocol: Lipopolysaccharide-Activated THP1 Cell TNF Production Assay
THP1 cells were resuspended in fresh THP1 media (RPMI 1640, 10% heat-inactivated FBS, 1×PGS, 1×NEAA, plus 30 μM βME) at a concentration of 1.5×10^6 cells per mL. One hundred microliters of cells per well were plated in a polystyrene 96-well tissue culture plate. 1.5 micrograms per mL of bacterial LPS was prepared in THP1 media and transferred to the first 11 columns of a 96-well polypropylene plate. Column 12 contained only THP1 media for the LO control. Compounds were dissolved in 100% DMSO and serially diluted 3 fold in a polypropylene 96-well microtiter plate (drug plate). Columns 6 and 12 were reserved as controls (HI controls and LO controls respectively) and contained only DMSO. […] Fifty microliters of conditioned media was transferred to a 96-well MULTI-ARRAY™ 96-well small spot plate—custom coated with MAB610 containing 100 μL of 2× Read Buffer P supplemented with 0.34 nM AF210NA polyclonal Ab labeled with ruthenium (MSD-Sulfo-TAG™-NHS ester). After an overnight incubation at room temperature with shaking, the reaction was read on the Sector Imager™ 6000. […] The amount of secreted TNF-α in the presence of AMG compounds compared with that in the presence of DMSO vehicle alone (HI control) was calculated using the formula: % control (POC)=(cpd−average LO)/(average HI−averageLO)*100. […]

[3] = system: Collagen-Induced Arthritis (CIA) Model in Rats; test: Collagen-induced arthritis (CIA) model in rats; format: in vivo; conditions: Rattus norvegicus, 168 h, read-out: ED50 in the rat CIA model
Protocol: Collagen-Induced Arthritis (CIA) Model in Rats
Porcine type II collagen (10 mg) was dissolved in 0.1N acetic acid (5 mL) two days prior to use on a rotating plate in the refrigerator. Subsequently, collagen was emulsified 1:1 with Freund's incomplete adjuvant using an emulsification needle and glass syringes yielding a final concentration of 1 mg/mL.
Disease was induced in each animal by intradermal injection of emulsified collagen in IFA at 10 different sites (100 μL per site) over the back. […] At onset (defined as Day 0), rats were randomized to treatment groups and therapy was initiated with drug or vehicle control as noted in table above. Rats were treated for 7 days and were sacrificed on Day 8.

For `Cn1c(=O)c(-c2cc(C(=O)NC3CC3)ccc2Cl)cc2cnn(-c3c(F)cccc3F)c21` [Example 20, 4-chloro-N-cyclopropyl-3-(1-(2,6-difluorophenyl)-7-methyl-6-oxo-6,7-dihydro-1H-pyrazolo[3,4-b]pyridin-5-yl)benzamide], the IC50 (recombinant human p38α) was no more than 100 nM, the IC50 (recombinant human p38α; read-out: p38a IC50) was 2.5 nM and the IC50 [1] was no more than 125 nM. It also gave an IC50 [2] of no more than 175 nM and an ED50 [3] of 0.1 mg/kg.

Read-outs that look alike come from different tables or passages of the source.
